ARNT TACC3 PPI: disrupts binding between human ARNT and TACC3; Q9Y6A5; AlphaScreen His-ARNT PAS-B/GST-TACC3 binding, luminescence; TACC3 fragment carries E629A point mutation; inhibition, % at 9.99 µM; 390,000 tested, 0.66% active; AID 623870;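 active means mean inhibition of replicates at least 50% and at least half of replicates each reaching 50%; inconclusive means half or more replicates reach 50% but mean below 50%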
CAL PDZ FP-1: inhibitors of human CAL PDZ peptide binding; Q9HD26; purified CAL PDZ, TMR-peptide fluorescence polarization, 1 h; inhibition, % at 24.9 µM; 300,000 tested, 0.92% active; AID 602252;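 active means mean inhibition of at least 30% with at least half of replicates also reaching 30%; inconclusive means no clear call, values can overlap the other calls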
Vif inh: HIV Vif inhibition; AID 602346; HEK293T cells, Vif self-association by quenched fluorescence, imaging, 24 h; 340,000 tested, 0.35% active; inhibition, % at 7.49 µM; in the data active means inhibition above about 50%, passing the limit was not always enough; inconclusive means no clear call, values can overlap the other calls; inactive means below about 31%
CAL PDZ FP-2: blocks peptide binding to human CAL PDZ domain | AID 504414 | Q9HD26 | 330,000 tested, 0.02% active | purified CAL PDZ, TMR-peptide fluorescence polarization, 1 h | inhibition, % at 20 µM;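 active means highest replicate inhibition of at least 40%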
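Test system: tagged CAL PDZ domain / Buffer or medium: sodium phosphate/NaCl buffer pH 7.4 with TCEP, IgG, Thesit / Reagent: TMR-labelled reporter peptide T*-PRC34 bound in PDZ groove / Compound dosing: single point, 20 µM / Schedule: 1 h incubation at room temperature before polarization reading / Technique: fluorescence polarization (mP) / Benchmarks: unlabelled peptide, DMSO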
UUG fidelity: modulators of yeast start codon fidelity, primary screen, whole organism, S. cerevisiae, single point, plate reader. S. cerevisiae UUG-firefly luciferase reporter, luminescence/redox ratio. activity score, % at 18.7 µM. actives 0.13% (n = 350,000);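 active = replicate mean at a twofold rise or more, about +100% in these data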;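 note: firefly luciferase made from a UUG start codon reports start codon fidelity; reporter light over untreated wells divided by growth signal over untreated wells; some hits fall short of that in this replicate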
PglD inh: PglD (C. jejuni) enzyme inhibition; purified PglD enzyme, DTNB colorimetric CoA detection; inhibition, % at 12.5 µM; 360,000 tested, 0.098% active; AID 602405; in the data active means inhibition above about 16%, passing the limit was not always enough; inconclusive means no clear call, values can overlap the other calls
Hits are given with their value; . = inactive; ? = inconclusive; / = no result. The list is not random: actives were taken first. Their share in the collection is about 1.6%.

SMILES | ARNT TACC3 PPI | CAL PDZ FP-1 | Vif inh | CAL PDZ FP-2 | UUG fidelity | PglD inh
Cc1ccc(C2C(C#N)=C(N)Oc3n[nH]c(-c4cccs4)c32)cc1 (stereo not drawn) | . | . | / | . | . | .
CCCNC(=O)C[C@H]1CC[C@H]2[C@H](COc3ccc(NC(=O)NC(C)C)cc3C(=O)N2C)O1 | . | / | / | / | . | .
COc1ccccc1S(=O)(=O)N1C[C@H](O)COC[C@@H]2O[C@@H](CC(=O)O)CC[C@H]21 | / | / | / | / | . | .
O=C(COc1ccc(Cl)cc1)N/N=C/c1cccc2cccnc12 | . | / | . | . | . | .
Cc1ccccc1NC(=O)CSc1nnc(-c2ccccn2)o1 | / | . | . | . | . | .
Cc1cccc(NC(=O)CSc2cccc3cccnc23)c1C | 84 | . | . | . | . | .
O=C(CSc1cccc2cccnc12)Nc1cccc(S(=O)(=O)N2CCOCC2)c1 | 26 | / | . | . | / | /
Cc1ccccc1NC(=O)CSc1n[nH]c(-c2ccccn2)n1 | 64 | . | . | . | . | .
COc1ccc(NC(=O)CSc2cccc3cccnc23)c(OC)c1 | . | . | . | . | . | .
COc1ccc(OCC(=O)N/N=C/c2cccc3cccnc23)cc1 | 77 | / | . | . | . | .
C[C@@H]1CCCCO[C@@H](CN(C)C)[C@H](C)CN([C@H](C)CO)C(=O)c2cc(NC(=O)Nc3cccc4ccccc34)ccc2O1 | . | / | / | / | . | .
COCC(=O)Nc1ccc2c(c1)C(=O)N(C)C[C@@H](OC)[C@@H](C)CN(Cc1ccncc1)[C@H](C)CO2 | . | / | / | / | . | .
O=C(C[C@@H]1CC[C@H](NC(=O)NC2CCCC2)[C@@H](CO)O1)NCc1ccc(F)cc1 | . | / | / | / | . | .
O=C(CSc1cccc2cccnc12)N/N=C/c1ccc(O)cc1 | . | . | . | . | . | .
COc1cccc(/C=N/NC(=O)CSc2cccc3cccnc23)c1 | 96 | / | . | . | . | .
COc1ccccc1OCC(=O)N/N=C/c1cccc2cccnc12 | 78 | / | . | . | . | .
COC(=O)Cc1c(O)ccn(Cc2ccccc2OC)c1=O | . | 47 | . | . | . | .
COC(=O)Cc1c(O)ccn(Cc2cccc3ccccc23)c1=O | . | . | . | . | . | .
Cc1cccc(C(=O)NCCC(=O)NCc2ccccc2Cl)c1 | . | . | 54 | . | . | .
Cc1cccc(C(=O)NCC(=O)NC(C)CCc2ccccc2)c1 (stereo not drawn) | . | 32 | . | . | . | .
Cc1cccc(C(=O)OCC(=O)NC(C)CCc2ccccc2)c1 (stereo not drawn) | . | . | . | . | / | /
Cc1cccc(NC(=O)CCNC(=O)c2ccc(Br)cc2)c1 | . | 47 | . | . | . | .
COc1cc2c(cc1OC(C)=O)C(=O)CCCC2 | / | / | . | / | / | /
CC(=O)Oc1cc2c(cc1OC(C)=O)C(=O)CCCC2 | / | / | 57 | / | . | .
CC(C)n1c(CNC(=O)c2ccccc2F)nnc1SCC(=O)NC1CCCCC1 | . | / | 53 | . | . | .
SMILES | ARNT TACC3 PPI | CAL PDZ FP-1 | Vif inh | CAL PDZ FP-2 | UUG fidelity | PglD inh
CCn1c(CNC(=O)c2ccccc2F)nnc1SCC(=O)NC1CCCCC1 | . | . | . | . | / | /
CCOc1ccc(Cn2c(=O)sc3ccccc32)cc1OC | . | 66 | . | . | . | .
O=C(NCC1CCCCC1)[C@@H]1[C@@H](CO)[C@@H]2Cn3c(ccc(-c4ccccc4)c3=O)[C@H]1N2 | . | / | / | / | / | .
C[C@@H]1CN([C@H](C)CO)C(=O)Cc2cc(N(C)C)ccc2O[C@H]1CN(C)C(=O)Nc1cccc2ccccc12 | . | / | / | / | . | .
CC1CN(C(=O)COC(=O)c2cccc(S(=O)(=O)N3CCc4ccccc43)c2)CC(C)O1 (stereo not drawn) | . | 59 | . | . | . | .
CS(=O)(=O)N1CCc2cc(C(=O)OCC(=O)c3ccccc3)ccc21 | . | 98 | / | . | . | .
C[C@@H]1CN([C@H](C)CO)S(=O)(=O)c2ccc(C#C[C@@H](C)O)cc2O[C@@H]1CN(C)C(=O)CN(C)C | . | / | / | / | . | .
C[C@@H](NC(=O)C[C@H]1CC[C@H](NC(=O)CN2CCOCC2)[C@@H](CO)O1)c1ccccc1 | . | / | / | / | . | .
O=C(Nc1ccc(N2CCCCCC2)cc1)c1cccc(S(=O)(=O)N2CCOCC2)c1 | / | 36 | . | . | / | /
O=C(Nc1cccc(S(=O)(=O)N2CCOCC2)c1)c1cccc(S(=O)(=O)N2CCCCC2)c1 | . | . | . | . | . | .
O=C(N/N=C/c1cc(Cl)cc([N+](=O)[O-])c1O)c1cccc(S(=O)(=O)N2CCOCC2)c1 | 71 | . | . | . | . | .
Cc1cc(C(=O)N/N=C/c2cc(Cl)cc([N+](=O)[O-])c2O)c2ccccc2n1 | 76 | . | . | . | . | .
CC=Cc1ccc2n(c1=O)C[C@H]1[C@H](CO)[C@@H](C(=O)N(C)C)N(CC3CCOCC3)[C@@H]21 (mixture of isomers) | . | / | / | / | / | .
C[C@@H]1CN([C@@H](C)CO)C(=O)c2cc(NC(=O)NC3CCCCC3)ccc2O[C@H]1CN(C)S(=O)(=O)c1cccs1 | . | / | / | / | . | .
COc1cccc(NC(=O)N[C@H]2CC[C@H](CC(=O)NCc3ccccn3)O[C@@H]2CO)c1 | / | / | / | / | . | .
OCC1OC(n2cnc3c(NCc4ccco4)ncnc32)C(O)C1O (stereo not drawn) | . | . | 54 | . | / | /
OC[C@H]1O[C@@H](n2cnc3c(NCc4ccco4)ncnc32)[C@H](O)[C@@H]1O | . | . | . | . | . | .
OC[C@H]1O[C@@H](n2cnc3c(NC4CCCC4)ncnc32)[C@H](O)[C@@H]1O | . | . | 67 | . | . | .
OCC1OC(n2cnc3c(NC4CCCC4)ncnc32)C(O)C1O (stereo not drawn) | . | . | ? | . | . | .
Nc1ncnc2c1ncn2C1OC(C(=O)NC2CC2)C(O)C1O (stereo not drawn) | . | . | 160 | . | . | .
C=CCNc1ncnc2c1ncn2C1OC(CO)C(O)C1O (stereo not drawn) | / | . | 60 | . | . | .
CN1C(=O)c2cc(NC(=O)Nc3ccccc3)ccc2OC[C@@H]2O[C@@H](CC(=O)NC3CCC3)CC[C@H]21 | . | / | / | / | . | .
COCCNC(=O)C[C@@H]1CC[C@@H]2[C@H](COC[C@@H](O)CN2C(=O)Nc2ccc3c(c2)OCO3)O1 | . | / | / | / | . | .
O=C(O)CC(CC(=O)Nc1ccc(Oc2ccccc2)cc1)c1ccccc1 (stereo not drawn) | . | . | . | . | / | /
COc1ccc(NC(=O)CC(CC(=O)O)c2cc(OC)c(OC)c(OC)c2)cc1 (stereo not drawn) | . | 59 | . | . | . | .
C[C@@H]1CN([C@@H](C)CO)C(=O)Cc2cc(NC(=O)Cc3cn(C)c4ccccc34)ccc2O[C@H]1CN(C)Cc1ccccc1 | . | / | / | / | . | .
C=CCN(c1ccccc1OC)S(=O)(=O)c1cccc(C(=O)NC2=NCCS2)c1 | . | . | . | . | . | .

Screening results (PubChem)
